From ChEMBL document CHEMBL1145819 (J Med Chem, 2003) come the findings set out here.

Sequences of proteins named here, by UniProt entry; tags and fusion partners are left off.
UniProt P30966, whole entry: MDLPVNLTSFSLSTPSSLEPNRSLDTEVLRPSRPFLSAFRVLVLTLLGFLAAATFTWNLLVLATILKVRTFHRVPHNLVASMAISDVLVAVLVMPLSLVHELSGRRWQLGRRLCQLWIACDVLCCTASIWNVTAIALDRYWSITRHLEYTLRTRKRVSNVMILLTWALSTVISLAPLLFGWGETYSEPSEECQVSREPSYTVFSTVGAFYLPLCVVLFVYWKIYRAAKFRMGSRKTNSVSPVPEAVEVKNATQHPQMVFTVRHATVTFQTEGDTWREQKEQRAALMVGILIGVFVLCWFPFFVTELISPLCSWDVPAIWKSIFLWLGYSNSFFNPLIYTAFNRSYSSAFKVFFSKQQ

For this assay, the target named is 5-hydroxytryptamine receptor 5A (Mus musculus, UniProt P30966). As to the kind of experiment: Binding affinity towards mouse 5-hydroxytryptamine 5A receptor.

Broadly, the Ki is the dissociation constant of the complex between target and ligand, obtained from inhibition or displacement. Higher therefore signals weaker binding. Consider `NCCc1c[nH]c2ccc(O)cc12` [SEROTONIN], for which the affinity, expressed as Ki, was 150 nM.
